Ab-14 light chain CDR variants: yeast mating affinities

Data: MIT Lincoln Laboratory AlphaSeq set, Li et al. 2023, doi:10.1038/s41467-023-39022-2, as distributed in FLAb.

Antigen: PDVDLGDISGINAS, a 14-residue peptide of the SARS-CoV-2 spike HR2 region.

Parent scFv Ab-14: VH joined to VL by a 15-residue (Gly4Ser)3 linker. Changes lie in the light chain CDRs alone.
VH: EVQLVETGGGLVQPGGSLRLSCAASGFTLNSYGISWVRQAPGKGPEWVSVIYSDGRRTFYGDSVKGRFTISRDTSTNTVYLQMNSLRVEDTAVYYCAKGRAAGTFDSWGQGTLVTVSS
VL: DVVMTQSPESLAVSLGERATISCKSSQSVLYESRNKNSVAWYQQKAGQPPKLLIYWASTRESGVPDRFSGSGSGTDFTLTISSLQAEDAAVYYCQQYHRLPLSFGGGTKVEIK

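Phage display of a naive human antibody library on the peptide gave the parent. The variants were designed computationally from a first round of random CDR variants and then made and measured. Group labels follow the data file (Ctrl: baseline library sampled from a position-specific scoring matrix, with some repeated check sequences; Rand: our label for a block that the file lists under HC and that is probably the random mutants of the ten best first-round binders; En: ensemble of fine-tuned language models; GP: Gaussian process model; HC: hill climbing; Gen: genetic algorithm; Gibbs: Gibbs sampling; a sequence that several methods proposed may carry one label only). In AlphaSeq, yeast of one mating type display the scFv and yeast of the other type display the target. Pairs that bind mate more often; barcode pairs of the diploids are counted by sequencing. A regression on co-assayed BCL2-family reference pairs converts the normalised counts of each replicate to an apparent Kd. The assay was run in six technical replicates.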

The parent's light chain CDRs are KSSQSVLYESRNKNSVA, WASTRES, QQYHRLPLS; each variant's own CDRs replace them letter for letter. Affinities are written as log10 Kd with Kd in nM; a lower number is a better binder. A mean of the replicates is given; it leaves out those without a signal. A pair that was not seen in any replicate is written "not detected"; this usually means weak binding, but a binder can also be missed. As a blank, each scFv also met three strains without target: over all light chain designs, 4% of these pairings were detected, typically at 2.64 and seldom below 1.59. Also given: how often the same scFv was detected with the empty control strains. The authors averaged sequences with at least three values out of six and counted those with two or fewer as poor binders. Where one sequence has several entries in the source, the replicates are pooled. A sequence measured in both rounds can read differently, since the two assays cover different ranges.

| CDR-L1 | CDR-L2 | CDR-L3 | group | mean, log10 nM | replicates with signal | control signals |
|---|---|---|---|---|---|---|
| RVTILSDPYMENRNAIA | QTSLRAH | QQYQMLPLT | En_Gibbs | 0.64 | 6/6 | 0/18 |
| KMNMAVQQDLMDEQSVA | DHMTAVT | QQYGRLPLS | En_Gibbs | 0.37 | 6/6 | 0/18 |
| LLQQSELYESRNKNSVA | DASTREE | QQYHRLPLS | GP_Gibbs | 0.12 | 6/6 | 0/18 |
| KSSQSDLYEPRMKNSVA | WASTRES | QQYHRLPLS | Ctrl | 0.70 | 6/6 | 1/18 |
| KLGDMVHTESKNKNSIA | DMRTRES | QQYYRLPLS | En_HC | 0.05 | 6/6 | 0/18 |
| KLQQSVPYESRNKNSVA | DASTRES | QQYHRLPLS | GP_Gen | -0.31 | 6/6 | 0/18 |
| MFSQLFMYGSRNYNSVA | QASTRVS | QQYHRLPLI | En_HC | 1.91 | 6/6 | 1/18 |
| KLSPEVEYESRLKNSVA | NASTRLE | QQYHRLPLS | GP_Gibbs | 0.39 | 6/6 | 1/18 |
| KQSQSVLYESRNKNSVA | DASTRES | SQYHRLHLS | Rand | 0.36 | 6/6 | 2/18 |
| KLPQSTLYESRNQNSVA | NASTRES | QQYHRLPLS | GP_HC | -0.10 | 6/6 | 1/18 |
| KLSQSVWYESRNKNSVA | QASTRES | QQYHRLPLS | GP_Gen | -0.42 | 6/6 | 0/18 |
| KIGDTLNQLMTKRNNVA | DLVEREN | QQYFRLPLS | En_Gen | 0.10 | 6/6 | 2/18 |
| NFGQKMALITGQRQQIA | DSTVRED | QQYSRLPLT | En_Gibbs | 0.15 | 6/6 | 1/18 |
| KVQQSDLYESRNKNSVA | NASTRES | QQYHRLPLS | GP_Gen | -0.06 | 6/6 | 1/18 |
| MVTQMAMTGMMSKRSVA | NAEMREH | QQYHRLPLI | En_Gen | 1.67 | 4/6 | 0/18 |
| QIAETFMQVGIGANNIA | NATVRPA | QQYLRLPLM | En_Gibbs | -0.31 | 6/6 | 0/18 |
| KSGISYLYESRNKNSVA | EASTRES | QQHHRLPLS | Rand | 2.71 | 1/6 | 0/18 |
| KSSQSWLYESRNFWSVA | EASTRES | QQYHRLPLS | GP_HC | 0.64 | 6/6 | 0/18 |
| KQSQSVLGESVNKNSVA | DASTRES | QQYHRLPLS | GP_HC | 0.44 | 6/6 | 1/18 |
| MISQLYNMGTFAINSVA | QASERCN | QQYDRLPLI | En_Gen | 2.48 | 3/6 | 1/18 |
| KLTAAQNYYGQNYSNIA | EEINSLQ | QQYHHLPLS | En_Gibbs | 2.81 | 4/6 | 2/18 |
| KSSQSVLYESRNCASVA | WATTRQS | QQYHRLPLS | Ctrl | not detected | 0/6 | 1/18 |
| KCAQSQDYESRNKNAVA | NASQRES | QQYHRLPLS | GP_Gibbs | 0.77 | 6/6 | 1/18 |
| TISQMTALFSQTINNVA | EVSTREN | QQYDRLPLI | En_Gen | 1.36 | 6/6 | 0/18 |
| KVSEFMRGLMQRTDSIA | DNVTRNN | QQYDRLPLS | En_Gen | 2.13 | 6/6 | 4/18 |
| KVSQSQLYESRNMNSVA | NASTREM | QQYHRLPLV | GP_Gibbs | 0.60 | 6/6 | 0/18 |
| MISQVLNTLTRNGNNVA | DLTEREK | QQYFRLPLS | En_Gen | 1.14 | 6/6 | 0/18 |
| TISQMSTLFSQSINNVA | EVSERLN | QQYDRLPLS | En_Gen | 1.13 | 6/6 | 1/18 |
| IVSQLMIWGMHVKNSIA | EAQMRLN | QQYDRLPLF | En_Gen | not detected | 0/6 | 1/18 |
| KSSQSFLYESRAKNSVA | GASQRES | QQYHRLPLS | GP_HC | 0.12 | 6/6 | 5/18 |
| KLEQSWLYESRNKNSVA | NASQRES | QQYHRLPLS | GP_Gen | -0.34 | 6/6 | 2/18 |
| KIGATLMMLEHKQNNVA | DLVTREN | QQYHRLPLS | En_Gen | 0.48 | 6/6 | 1/18 |
| KLYAATMLESHDKNSIA | DLSTRGN | QQYHRLPLS | En_HC | 0.61 | 6/6 | 0/18 |
| SMAYFQHFGFQQEKAIA | EVATREQ | QQYFRLPLT | En_Gibbs | not detected | 0/6 | 0/18 |
| TISEMLHVPGKNRNSVA | ELSTRSN | QQYDRLPLS | En_Gen | 0.71 | 6/6 | 0/18 |
| TISTSMRYESSLKNAIA | NAQTREY | QQYHRLPLS | En_HC | 1.92 | 6/6 | 0/18 |
| KLQSITGTEKVRGNNVA | EMETREN | QQYNRLPLS | En_Gen | 0.30 | 6/6 | 0/18 |
| KSEQSWLYESRNKNSVA | HASTREQ | QQYHRLPLS | GP_HC | -0.06 | 6/6 | 2/18 |
| KQSQSVLFESRNKNSVA | DASTRES | QQYHRLPLS | GP_HC | -0.30 | 6/6 | 0/18 |
| HMSMLTMMGMRQRNSVA | QMTMREN | QQYDRLPLA | En_Gen | 0.39 | 6/6 | 1/18 |
| KFSQSVPYDSRNKNSVA | WASTRES | QQYHRLPLS | Ctrl | 1.04 | 6/6 | 0/18 |
| TISQLMLYESRNKNNVA | GTSTRES | QCYHRLPLS | En_HC | 1.29 | 6/6 | 1/18 |
| KLHQSDGYESRNINSVA | NASQRCS | QQYHRLPLS | GP_Gibbs | -0.32 | 6/6 | 2/18 |
| KSSQSVDYESRNKNSVA | DASTRES | QQYHRLPLS | Ctrl+GP_Gen | 0.26 | 12/12 | 3/36 |
| MMSMGFLGGSRAKNNVA | QESTRES | QQYHRLPLI | En_HC | 0.89 | 6/6 | 2/18 |
| MISPSFMVESRLKNSVA | QTSTRES | QQYDRLPLS | En_HC | 0.49 | 6/6 | 3/18 |
| YSSQSWLYESRNKNSVA | GASTRES | QQYHRLPLS | GP_HC | -0.12 | 6/6 | 1/18 |
| KVSQSFLYESRNKNAVA | GASTRES | QQYHRLTLS | GP_HC | 0.15 | 6/6 | 0/18 |
| KISQLVNFMGKNKNSVA | QMSTRES | QQYDRLPLS | En_HC | 0.52 | 6/6 | 5/18 |
| KLGQSVGYESRNKSRVA | DNSTRES | QQYDRLPLS | En_HC | 1.23 | 3/6 | 1/18 |
| KLSQSVEYQSRNKNSVA | NASTRES | QQYHRLPLS | GP_Gen | 0.56 | 6/6 | 1/18 |
| KISQMVTYESTWHNAIA | QTSEREE | QQYHHLPLS | En_HC | 0.48 | 6/6 | 1/18 |
| KSSQSVLKESANKNSVA | GASTRES | QYYHRLPLS | Ctrl | 0.93 | 6/6 | 0/18 |
| AVSIEHTENTRYWNAIA | DLSQRNN | QQYDQLPLS | En_Gibbs | 1.98 | 4/6 | 1/18 |
| MINQLYNMGQFAINSVA | QASQRNE | QQYDRLPLM | En_Gen | 0.70 | 6/6 | 2/18 |
| ILMQPYKEPGAAVNNIA | DGSIRLQ | QQYHRLPLV | En_Gibbs | 0.37 | 6/6 | 1/18 |
| MVNGITDHLSKNTNSVA | ETETREE | QQYDRLPLS | En_Gen | 0.85 | 6/6 | 1/18 |
| RMEWHNSGALEAKNSVA | GVEHRAN | QQYDRLPLE | En_Gibbs | 0.80 | 6/6 | 2/18 |
| KMSQSVLYEDDNKNSVA | WASTRES | QQYHRLPLS | Ctrl | not detected | 0/6 | 0/18 |
| MLSEVLHMLGVQKNAIA | DLVLRAN | QQYHRLPLA | En_Gen | not detected | 0/6 | 0/18 |
| HISYSMEHLSKNKNSVA | NQQTRES | QQYHRLPLS | En_HC | 0.48 | 6/6 | 0/18 |
| KSKQSVLYESLNKNSVA | EASCRES | QQYFRLPLS | Ctrl | 0.96 | 6/6 | 0/18 |
| TLTMVQGMESHNMDNVA | DLSTRGS | QQYHRLPLS | En_HC | 2.62 | 5/6 | 0/18 |
| QIYQAMHTLSQMKDNVA | DVNERGQ | QQYSRLPLS | En_Gen | 0.07 | 6/6 | 1/18 |
| TIDLYTSYGNGENWAIA | DVSIKDY | QQYARLPLL | En_Gibbs | 1.75 | 6/6 | 2/18 |
| IISQVDAYESRSKNSIA | DQSTRGS | QQYDRLPLS | En_HC | 0.46 | 6/6 | 0/18 |
| KSSASELYESAAKNSVA | NAMQRMS | QQYHRLPLS | GP_Gibbs | -0.24 | 6/6 | 0/18 |

Again, the first 5 entries without any signal:

| CDR-L1 | CDR-L2 | CDR-L3 | group | mean, log10 nM | replicates with signal | control signals |
|---|---|---|---|---|---|---|
| KSSQSVLYESRNCASVA | WATTRQS | QQYHRLPLS | Ctrl | not detected | 0/6 | 1/18 |
| IVSQLMIWGMHVKNSIA | EAQMRLN | QQYDRLPLF | En_Gen | not detected | 0/6 | 1/18 |
| SMAYFQHFGFQQEKAIA | EVATREQ | QQYFRLPLT | En_Gibbs | not detected | 0/6 | 0/18 |
| KMSQSVLYEDDNKNSVA | WASTRES | QQYHRLPLS | Ctrl | not detected | 0/6 | 0/18 |
| MLSEVLHMLGVQKNAIA | DLVLRAN | QQYHRLPLA | En_Gen | not detected | 0/6 | 0/18 |